This test deals with T1, horse serum butyrylcholinesterase (BChE) (Equus caballus, UniProt P81908).
T1 construct: horse serum butyrylcholinesterase (BChE, EC 3.1.1.8); purchased Sigma-Aldrich Co. (St. Louis, MO, USA); host or cells: horse serum
The test can be described thus: In vitro ChE enzyme assay (Ellman), BChE. To be noted: mean ± SEM of triplicate experiments. The class given is biochemical. The text has this: Electric eel acetylcholinesterase (AChE, EC3.1.1.7), horse serum butyrylcholinesterase (BChE, EC 3.1.1.8), acetylthiocholine iodide (ACh), butyrylthioline chloride (BCh), 5,5′-dithobis [2-nitrobenzoic acid] […] The BACE1 FREF assay kit (β-secretase) was purchased from Pan Vera Co. (Madison, WI, USA). ONOO^− was purchased from Molecular Probes Cayman (Ann Arbor, MI, USA). All other chemicals and solvents used were purchased from E. Merck, Fluka, or Sigma- Aldrich, unless otherwise stated.
The inhibitory activity of the isolated coumarins toward ChE was measured using the spectrophotometric method developed by Ellman et al.. ACh and BCh were used as substrates to assay the inhibition of AChE and BChE, respectively. Each reaction mixture consisted of 140 µL sodium phosphate buffer (pH 8.0), 20 µL of test sample solution, and 20 µL of either AChE or BChE solution, which were then combined and incubated for 15 min at room temperature. […] Enzymatic hydrolysis, mediated by AChE or BChE, was monitored according to the formation of yellow 5-thio-2-nitrobenzoate anions at 412 nm for 15 min, which were generated by the reaction of DTNB with thiocholine released from ACh or BCh. All reactions were performed in 96-well plates in triplicate, and recorded using a microplate spectrophotometer (Molecular Devices, Sunnyvale, CA, USA).

The chains behind the UniProt entries cited, without tags or fusion partners.
UniProt P81908, whole entry: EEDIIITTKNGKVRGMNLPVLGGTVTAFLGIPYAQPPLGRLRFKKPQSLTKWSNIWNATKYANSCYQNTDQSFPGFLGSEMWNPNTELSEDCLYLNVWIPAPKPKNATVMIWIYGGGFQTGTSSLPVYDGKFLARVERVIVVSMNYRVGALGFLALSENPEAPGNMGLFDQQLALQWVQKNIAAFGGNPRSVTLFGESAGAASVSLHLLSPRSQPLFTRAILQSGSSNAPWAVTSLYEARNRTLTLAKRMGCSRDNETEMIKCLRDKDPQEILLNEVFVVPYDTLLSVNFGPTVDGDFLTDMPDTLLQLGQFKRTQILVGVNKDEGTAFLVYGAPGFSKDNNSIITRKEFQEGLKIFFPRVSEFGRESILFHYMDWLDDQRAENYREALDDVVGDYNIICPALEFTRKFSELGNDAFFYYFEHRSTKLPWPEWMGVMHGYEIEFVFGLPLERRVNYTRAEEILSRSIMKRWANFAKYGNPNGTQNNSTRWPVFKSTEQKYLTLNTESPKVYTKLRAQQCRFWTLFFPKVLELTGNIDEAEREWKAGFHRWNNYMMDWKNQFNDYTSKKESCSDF

Molecules are shown by their SMILES.

The term IC50 denotes the concentration that gives 50% inhibition. Lower therefore signals greater potency in that assay. Regarding `O=c1ccc2ccc(O)cc2o1` [Compound 1, umbelliferone], inhibition was half-maximal at 90.14 ± 0.02 µM (IC50).

These data come from PMC6151429 (Molecules : A Journal of Synthetic Chemistry and Natural …, 2017).
